Results on two molecules are retold here after article PMC11443384 (Journal of the American Chemical Society, 2023).

Data set [1] deals with mouse peripheral nerves. The data set can be described thus: in vivo/ex vivo epifluorescence imaging. The procedure, abridged: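 Athymic mice got Bac-Hs1a i.v. by lateral tail vein (1 nmol; 11 μM in 100 μL PBS) or 100 μL PBS, and were sacrificed 30 min later (terminal). Peripheral nerves of upper and lower extremities were surgically exposed. IVIS Spectrum epifluorescence (ex 680/20 nm, em 720–750 nm) was taken before and after exposure and on resected organs. Mean ± SD of biological replicates; unpaired t test.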

Data set [2] can be described thus: acute biodistribution, organ radioactivity. The data set is classed as in vivo. To be noted: mouse, total radioactivity. An outline of the steps:
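Athymic nude mice were given PBS-formulated [⁶⁴Cu]Cu-Bac-Hs1a, either alone or as a block formulation with unlabeled Hs1a. Radioactivity in each organ was expressed as percentage of injected dose per gram of tissue (%ID/g). Data are mean ± SD of biological replicates; groups compared by Student's unpaired t test.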

Data set [3] in a line: Radio-HPLC stability in saline and serum solutions. The data set is classed as in vitro ADME. To be noted: n = 3.
Data set [4] deals with mouse peripheral nerves. The data set can be described thus: Cerenkov luminescence imaging of mice injected with [^64Cu]Cu-Bac-Hs1a. The format is in vivo. To be noted: resected nerves; unit not printed in b35 (p/s/cm^2/sr). An outline of the steps:
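Athymic nude mice received PBS-formulated [⁶⁴Cu]Cu-Bac-Hs1a alone, or a block formulation of radiotracer plus unlabeled Hs1a. Nerves and organs were resected and imaged ex vivo by Cerenkov luminescence. ROIs were drawn on resected organs under overlay guidance. Data are mean ± SD of biological replicates, compared by parametric Student's t test.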

Data set [5] is described as follows: PET imaging quantification / acute biodistribution after [^64Cu]Cu-Bac-Hs1a. Particulars: athymic nude, mouse, liver, total radioactivity, liver (highest non-target uptake), 60 min post-injection. The format is in vivo.
[6] abbreviates: biodistribution, resected organs, fluorescence, 30 min after i.v. injection.
The mark [7] stands for this setting: mice after lateral tail vein injection, epifluorescence.

With `CC(C)C[C@H](NC(=O)[C@H](CCCCN)NC(=O)CNC(=O)[C@H](CCCCN)NC(=O)[C@@H]1CSSC[C@@H]2NC(=O)[C@H](CCCCN)NC(=O)[C@H](CC(=O)O)NC(=O)[C@H](CC(N)=O)NC(=O)[C@H](CCCCNC(=O)CCC(=O)N3CC4c5nc(c(-c6c(F)c(F)c(F)c(F)c6F)c6ccc([nH]6)c(-c6c(F)c(F)c(F)c(F)c6F)c6nc(c(-c7c(F)c(F)c(F)c(F)c7F)c7ccc([nH]7)c5-c5c(F)c(F)c(F)c(F)c5F)C5CN(C)CC65)C4C3)NC(=O)[C@@H]3CCCN3C(=O)[C@H](CC(N)=O)NC(=O)[C@@H]3CSSC[C@H](NC(=O)[C@H](C(C)C)NC(=O)[C@H](CC(C)C)NC(=O)[C@H](CC(N)=O)NC(=O)[C@H](C)NC(=O)[C@H](CSSC[C@H](NC(=O)[C@H](CC(=O)O)NC(=O)[C@H](CC(N)=O)NC(=O)CN)C(=O)N[C@@H](CC(C)C)C(=O)NCC(=O)N[C@@H](Cc4ccccc4)C(=O)N[C@@H](Cc4c[nH]c5ccccc45)C(=O)N[C@@H](CO)C(=O)N[C@@H](C)C(=O)N3)NC2=O)C(=O)N[C@@H](CO)C(=O)N[C@@H](CO)C(=O)N[C@@H](CCCCN)C(=O)N[C@@H](Cc2c[nH]cn2)C(=O)N[C@@H](CCCCN)C(=O)N[C@@H](Cc2c[nH]c3ccccc23)C(=O)N1)C(=O)O` (stereo partly drawn) [Bac-Hs1a], the “difference in radiant efficiency vs PBS, sciatic nerve” value in the data set on mouse peripheral nerves [1] (Bac-Hs1a-injected vs PBS-injected mice) is given as 15 fold. Also, the “fluorescence in other organs (muscles, heart, spleen, brain) vs PBS group” value in the data set with mouse peripheral nerves [1] (biodistribution, fluorescence) is listed as “did not observe significant fluorescence”. For the same molecule, in the data set on mouse peripheral nerves [1] (setting [6]), the kidney radiant efficiency was 3.8 ± 1.3 × 10^7 and the liver radiant efficiency is recorded as 2.1 ± 1.0 × 10^7. Moreover, in the data set with mouse peripheral nerves [1] (setting [7]), the “radiant efficiency after surgical nerve exposure (post)” value is given as 0.69 ± 0.02 × 10^9 and the “radiant efficiency before surgical nerve exposure (pre)” value is 0.7 ± 0.04 × 10^9.
Consider `CC(C)C[C@H](NC(=O)[C@H](CCCCN)NC(=O)CNC(=O)[C@H](CCCCN)NC(=O)[C@@H]1CSSC[C@@H]2NC(=O)[C@H](CCCCN)NC(=O)[C@H](CC(=O)O)NC(=O)[C@H](CC(N)=O)NC(=O)[C@H](CCCCNC(=O)CCC(=O)N3CC4c5nc(c(-c6c(F)c(F)c(F)c(F)c6F)c6ccc([nH]6)c(-c6c(F)c(F)c(F)c(F)c6F)c6nc(c(-c7c(F)c(F)c(F)c(F)c7F)c7ccc([nH]7)c5-c5c(F)c(F)c(F)c(F)c5F)C5CN(C)CC65)C4C3)NC(=O)[C@@H]3CCCN3C(=O)[C@H](CC(N)=O)NC(=O)[C@@H]3CSSC[C@H](NC(=O)[C@H](C(C)C)NC(=O)[C@H](CC(C)C)NC(=O)[C@H](CC(N)=O)NC(=O)[C@H](C)NC(=O)[C@H](CSSC[C@H](NC(=O)[C@H](CC(=O)O)NC(=O)[C@H](CC(N)=O)NC(=O)CN)C(=O)N[C@@H](CC(C)C)C(=O)NCC(=O)N[C@@H](Cc4ccccc4)C(=O)N[C@@H](Cc4c[nH]c5ccccc45)C(=O)N[C@@H](CO)C(=O)N[C@@H](C)C(=O)N3)NC2=O)C(=O)N[C@@H](CO)C(=O)N[C@@H](CO)C(=O)N[C@@H](CCCCN)C(=O)N[C@@H](Cc2c[nH]cn2)C(=O)N[C@@H](CCCCN)C(=O)N[C@@H](Cc2c[nH]c3ccccc23)C(=O)N1)C(=O)O` (stereo partly drawn) [[^64Cu]Cu-Bac-Hs1a, metal not drawn], for which, in data set [2] (liver), the tissue uptake came to 35.8 ± 0.5 %ID/g. In addition, the tissue uptake in data set [2] (peripheral nerves) was 41.8 ± 0.8 %ID/g. In data set [3], the “stability of the radiolabeled tracer (radiochemical purity)” value is on record as “high stability”. In the data set on mouse peripheral nerves [4], the “mean radiant efficiency (Cerenkov luminescence), brachial plexus, ex vivo” value was found to be 6378 ± 2048 and the “radiant efficiency (Cerenkov luminescence), sciatic nerves, ex vivo” value was found to be 6635 ± 1773. In addition, the tissue uptake at 1 h in data set [5] came out at 9.8 ± 2.8 %ID/g.
